Source: US6686371B2, “Non-steroidal, tetracylic compounds for estrogen-related treatments” (Akzo Nobel N.V., priority 2000, dated 2004)

Sequences of proteins named here, by UniProt entry; tags and fusion partners are left off.
UniProt Q92731, whole entry: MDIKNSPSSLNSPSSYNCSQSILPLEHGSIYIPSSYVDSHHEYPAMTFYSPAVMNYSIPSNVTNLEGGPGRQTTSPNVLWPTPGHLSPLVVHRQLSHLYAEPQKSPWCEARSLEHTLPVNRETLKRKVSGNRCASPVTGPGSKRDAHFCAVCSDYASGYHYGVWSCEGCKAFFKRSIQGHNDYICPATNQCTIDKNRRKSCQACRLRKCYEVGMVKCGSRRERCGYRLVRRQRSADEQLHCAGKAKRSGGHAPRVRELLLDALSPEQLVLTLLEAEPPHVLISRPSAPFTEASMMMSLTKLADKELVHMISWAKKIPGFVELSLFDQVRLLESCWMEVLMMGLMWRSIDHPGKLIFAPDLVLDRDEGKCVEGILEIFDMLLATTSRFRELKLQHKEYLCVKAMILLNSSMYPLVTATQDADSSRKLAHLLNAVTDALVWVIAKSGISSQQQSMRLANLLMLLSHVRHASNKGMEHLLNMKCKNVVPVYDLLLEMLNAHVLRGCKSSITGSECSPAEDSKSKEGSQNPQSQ

Biological target: T1, human estrogen receptor β receptor (hERβ) (Homo sapiens, UniProt Q92731)
T1 construct: expressed in transfected cells; host or cells: Chinese hamster ovary (CHO) cells, stably co-transfected with hERβ, rat oxytocin promoter and luciferase reporter
Assay: competitive binding to cytoplasmic human estrogen receptor β from recombinant CHO cells
Conditions: % relative to 17β-estradiol; cytosol of recombinant CHO cells; Table 2
Description: Compounds are tested for their estrogen receptor activity in a binding assay and in a transactivation assay.
Determination of competitive binding to cytoplasmic human estrogen receptor α or β from recombinant CHO cells is used to estimate the relative affinity (potency ratio) of a test compound for estrogen receptors present in the cytosol of recombinant Chinese hamster ovary (CHO) cells, stably transfected with the human estrogen receptor α (hERα) or β receptor (hERβ), as compared with estradiol (E2).

Binding ERβ: +++ (between 3.5-8%)
Substance: 10-chloro-1,1-dimethyl-2,8-dihydroxy-11H-indeno[1,2-b]quinoline [Compound 7d]
